Values quoted from earlier work in patent US20200188476A1, “ANTI-MICROBIAL AGENT-POLYMER CONJUGATES AND METHODS OF USE THEREOF” (The Regents of the University of California, priority 2017, published 2020).

Conditions: compared with polymyxin B

For “Polymyxin B nonapeptide [nonapeptide of polymyxin B]”, the in vivo toxicity is given as “significantly less than that of polymyxin B itself”.
